Reference: patent publication US20110033525A1, “Diterpene Glycosides as Natural Solubilizers” (priority 2008, published 2011)

Assay: physchem
Conditions: 25 °C, aqueous with cosolvent or surfactant or cyclodextrin, thermodynamic from solid, Solubility in water with solubilizer

solubility: 232 µg/mL (≈ 272 µM)
SMILES: CC(=O)O[C@H]1C(=O)[C@@]2(C)[C@H]([C@H](OC(=O)c3ccccc3)[C@]3(O)C[C@H](OC(=O)[C@H](O)[C@@H](NC(=O)c4ccccc4)c4ccccc4)C(C)=C1C3(C)C)[C@]1(OC(C)=O)CO[C@@H]1C[C@@H]2O [Paclitaxel, reference compound]

In brackets after ≈: the same amount, converted by molar mass.
